Experimental data as given in article PMC8789663 (The Journal of Biological Chemistry, 2021).

The chains behind the UniProt entries cited, without tags or fusion partners. Residues count along the entry.
UniProt P43220, 24-463: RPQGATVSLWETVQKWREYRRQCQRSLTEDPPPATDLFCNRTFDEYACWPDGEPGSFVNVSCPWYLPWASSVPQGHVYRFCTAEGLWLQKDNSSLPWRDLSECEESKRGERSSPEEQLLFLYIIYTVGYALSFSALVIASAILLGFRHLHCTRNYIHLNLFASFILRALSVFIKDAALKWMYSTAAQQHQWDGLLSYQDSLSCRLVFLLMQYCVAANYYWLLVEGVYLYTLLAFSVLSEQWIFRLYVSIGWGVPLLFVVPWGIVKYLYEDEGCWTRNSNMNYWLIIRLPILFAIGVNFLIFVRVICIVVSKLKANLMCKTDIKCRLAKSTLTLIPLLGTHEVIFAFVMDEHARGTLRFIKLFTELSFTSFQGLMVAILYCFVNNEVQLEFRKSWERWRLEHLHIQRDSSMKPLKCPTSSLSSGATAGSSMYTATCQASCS
UniProt P30082, 27-485: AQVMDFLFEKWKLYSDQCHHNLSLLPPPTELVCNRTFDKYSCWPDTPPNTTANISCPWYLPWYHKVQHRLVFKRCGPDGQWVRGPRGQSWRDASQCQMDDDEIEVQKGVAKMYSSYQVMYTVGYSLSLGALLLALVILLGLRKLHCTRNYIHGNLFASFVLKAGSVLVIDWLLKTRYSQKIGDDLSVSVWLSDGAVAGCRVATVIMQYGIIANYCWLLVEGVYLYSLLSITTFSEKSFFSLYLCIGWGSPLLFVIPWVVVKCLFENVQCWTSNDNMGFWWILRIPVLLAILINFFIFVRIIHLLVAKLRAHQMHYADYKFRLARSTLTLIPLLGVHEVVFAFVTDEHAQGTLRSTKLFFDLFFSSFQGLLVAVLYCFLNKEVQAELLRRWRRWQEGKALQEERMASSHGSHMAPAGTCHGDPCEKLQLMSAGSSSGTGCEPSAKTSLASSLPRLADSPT

Assays:
[1] = target: glucagon-like peptide-1 receptor, recombinant in HEK293-H188 c24 cells (human) (UniProt P43220)
[2] = target: glucagon-like peptide-1 receptor, recombinant in HEK293-H188 c24 cells (human) (UniProt P43220); remark: listed apart in the source
[3] = target: rat glucagon receptor (rat) (UniProt P30082)

Question: Which block of the action of GLP-1 to raise cAMP (H188 FRET) in HEK293-H188 c24 cells transfected with the GLP-1R; pair blocked: GLP-1 and GLP-1R [1] does the source give for Exendin-[9–39] (peptide) here?
Answer: 18 nM

Question: What about the block of the action of glucagon to raise cAMP (H188 FRET) in HEK293-H188 c24 cells transfected with the GLP-1R; pair blocked: glucagon and GLP-1R [1] of the same substance?
Answer: 50 nM

Question: GLP-1[7-36]amide (ligand) was tested. Which rise of cAMP (H188 FRET reporter) in HEK293-GLP-1R cells (HEK293-H188 c24) [2] did it give?
Answer: 98 pM

Question: Which rise of cAMP (H188 FRET reporter) in HEK293-GcgR cells (HEK293-H188 c24) [3] does the source give for glucagon (ligand) here?
Answer: 570 pM
